Source: BindingDB's records for 16153834

Protein sequences, listed by entry. Tags and fused reporters are not part of them. Lines headed by an entry give the natural chain unless they say otherwise; changes in a name come on top.
UniProt P41146: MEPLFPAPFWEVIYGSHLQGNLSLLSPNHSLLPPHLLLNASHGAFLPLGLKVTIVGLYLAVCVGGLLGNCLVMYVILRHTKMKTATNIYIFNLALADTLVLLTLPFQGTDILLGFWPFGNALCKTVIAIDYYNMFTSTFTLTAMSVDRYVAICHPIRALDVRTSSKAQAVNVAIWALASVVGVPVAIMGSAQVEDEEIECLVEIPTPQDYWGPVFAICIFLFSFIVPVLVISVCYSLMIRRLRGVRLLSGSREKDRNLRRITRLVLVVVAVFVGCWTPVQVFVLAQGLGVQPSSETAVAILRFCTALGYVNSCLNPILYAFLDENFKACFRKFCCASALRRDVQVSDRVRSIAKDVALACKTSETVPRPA

Biological target: Nociceptin receptor (Homo sapiens, UniProt P41146)
Assay: Binding affinity determined by the ability to compete with [125I]-Tyr14- nociceptin from binding to human opiate receptor-like 1 expressed in HEK293 cells

CCCN1C(=O)C2(CCN(CC3CCCCCCC3)CC2)c2cc(C(C)C)ccc21
IC50: > 10 µM
